For test [1], the system named is Chronic Constriction Injury model of ischiadic nerve (neuralgia). Particulars: rat, in vivo.
In test [2] the test system is hot-plate pain threshold in Kunming mice. The following applies: mouse, in vivo.

Consider `CN1CC[C@]23c4c5ccc(O)c4O[C@H]2[C@@H](O)C=C[C@H]3[C@H]1C5` [morphine, reference compound], for which the “average analgesic value (Mechanical Threshold, % of basal)” value in test [1] is 120%. This molecule yielded a pain threshold in test [2] of 32 s.
